According to PubChem BioAssay (NCI):
Several values for one entry are separate records, joined by “and”; a condition that tells them apart may be missing. Equal values may be shown once. This is a selection; strong and weak results do not stand in their true shares. Some structures have more than one record in an assay (separate samples or runs), and their calls can disagree. Activity calls are given as the source filed them. No stated cut-off is given here; in the data, active means growth inhibition above about 70%; inactive means the rest.

Assays:
[1] = NCI Yeast Anticancer Drug Screen. Data for the rad50 strain (AID 155);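 further: 0% = growth of vehicle-only cultures of the same strain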; conditions: S. cerevisiae rad50 strain growth inhibition, stronger effect = higher value
[2] = NCI Yeast Anticancer Drug Screen. Data for the mec2-1 strain (AID 157); conditions: S. cerevisiae mec2-1 strain, stronger effect = higher value
[3] = NCI Yeast Anticancer Drug Screen. Data for the sgs1 mgt1 strain (AID 161);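 further: 0% = growth of cultures given vehicle only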; conditions: S. cerevisiae sgs1 mgt1 strain, stronger effect = higher value
[4] = NCI Yeast Anticancer Drug Screen. Data for the cln2 rad14 strain (AID 165);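 further: 0% = growth equal to vehicle treated cultures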; conditions: S. cerevisiae cln2 rad14 strain, stronger effect = higher value
[5] = NCI Yeast Anticancer Drug Screen. Data for the bub3 strain (AID 167); conditions: S. cerevisiae bub3 mutant strain, stronger effect = higher value
[6] = NCI Yeast Anticancer Drug Screen. Data for the mlh1 rad18 strain (AID 175); conditions: S. cerevisiae mlh1 rad18 strain growth inhibition, stronger effect = higher value
[7] = at 5.0 µM (retest, dose inferred, filed as 0.5)
[8] = at 50.0 µM (retest, dose inferred, filed as 5.0)

## [N-]=[N+]=NC(=O)c1cccc([N+](=O)[O-])c1
[1]; [7]
  growth inhibition: inactive: 14%
[1]; [8]
  growth inhibition: active: 83%
[1]; at 50.0 µM
  growth inhibition: active: 80.7%
[2]; [7]
  growth inhibition: inactive: 0%
[2]; [8]
  growth inhibition: inactive: 51%
[2]; at 50.0 µM
  growth inhibition: inactive: 56%
[3]; [7]
  growth inhibition: inactive: 0%
[3]; [8]
  growth inhibition: inactive: 55%
[3]; at 50.0 µM
  growth inhibition: inactive: 39.5%
[4]; [7]
  growth inhibition: inactive: -4%
[4]; [8]
  growth inhibition: inactive: 36%
[4]; at 50.0 µM
  growth inhibition: inactive: 23.5%
[5]; [7]
  growth inhibition: inactive: 4%
[5]; [8]
  growth inhibition: active: 75%
[5]; at 50.0 µM
  growth inhibition: inactive: 37.9%
[6]; [7]
  growth inhibition: inactive: 5%
[6]; [8]
  growth inhibition: active: 76%
[6]; at 50.0 µM
  growth inhibition: inactive: 28%

## O=[N+]([O-])C(/C=C(/Cl)[N+](=O)[O-])=C(Cl)Cl
[1]; [7]
  growth inhibition: inactive: 13%
[1]; [8]
  growth inhibition: active: 99%
[1]; at 50.0 µM
  growth inhibition: active: 87.3%
[2]; [7]
  growth inhibition: inactive: 15%
[2]; [8]
  growth inhibition: active: 100%
[2]; at 50.0 µM
  growth inhibition: active: 87.7%
[3]; [7]
  growth inhibition: inactive: -8%
[3]; [8]
  growth inhibition: active: 99%
[3]; at 50.0 µM
  growth inhibition: active: 89.5%
[4]; [7]
  growth inhibition: inactive: -7%
[4]; [8]
  growth inhibition: active: 99%
[4]; at 50.0 µM
  growth inhibition: active: 89.3%
[5]; [7]
  growth inhibition: inactive: -18%
[5]; [8]
  growth inhibition: active: 100%
[5]; at 50.0 µM
  growth inhibition: active: 91.7%
[6]; [7]
  growth inhibition: inactive: -13%
[6]; [8]
  growth inhibition: active: 99%
[6]; at 50.0 µM
  growth inhibition: active: 85.4%

## Cc1cccc2cc3cccc(C)c3nc12
[1]; [7]
  growth inhibition: inactive: 20%
[1]; [8]
  growth inhibition: active: 73%
[1]; at 50.0 µM
  growth inhibition: inactive: 68.2%
[2]; [7]
  growth inhibition: inactive: 26%
[2]; [8]
  growth inhibition: active: 81%
[2]; at 50.0 µM
  growth inhibition: inactive: 27.1%
[3]; [7]
  growth inhibition: inactive: 25%
[3]; [8]
  growth inhibition: inactive: 47%
[3]; at 50.0 µM
  growth inhibition: inactive: 63.4%
[4]; [7]
  growth inhibition: inactive: 5%
[4]; [8]
  growth inhibition: inactive: 33%
[4]; at 50.0 µM
  growth inhibition: inactive: 13.8%
[5]; [7]
  growth inhibition: inactive: 20%
[5]; [8]
  growth inhibition: active: 85%
[5]; at 50.0 µM
  growth inhibition: inactive: 58.2%
[6]; [7]
  growth inhibition: inactive: 38%
[6]; [8]
  growth inhibition: active: 85%
[6]; at 50.0 µM
  growth inhibition: inactive: 68%

## O=C(c1cc([N+](=O)[O-])cc([N+](=O)[O-])c1)c1cc([N+](=O)[O-])cc([N+](=O)[O-])c1
[1]; [7]
  growth inhibition: inactive: 12%
[1]; [8]
  growth inhibition: active: 94%
[1]; at 50.0 µM
  growth inhibition: inactive: 13.4%
[2]; [7]
  growth inhibition: inactive: 13%
[2]; [8]
  growth inhibition: active: 97%
[2]; at 50.0 µM
  growth inhibition: inactive: 31.6%
[3]; [7]
  growth inhibition: inactive: 12%
[3]; [8]
  growth inhibition: active: 97%
[3]; at 50.0 µM
  growth inhibition: inactive: 53.4%
[4]; [7]
  growth inhibition: inactive: -2%
[4]; [8]
  growth inhibition: active: 93%
[4]; at 50.0 µM
  growth inhibition: inactive: 0.45%
[5]; [7]
  growth inhibition: inactive: 17%
[5]; [8]
  growth inhibition: active: 94%
[5]; at 50.0 µM
  growth inhibition: inactive: 18.4%
[6]; [7]
  growth inhibition: inactive: 14%
[6]; [8]
  growth inhibition: active: 95%
[6]; at 50.0 µM
  growth inhibition: inactive: 46.8%

## COc1cc([N+](=O)[O-])cc([N+](=O)[O-])c1
[1]; [7]
  growth inhibition: inactive: 10%
[1]; [8]
  growth inhibition: inactive: 62%
[1]; at 50.0 µM
  growth inhibition: inactive: 58.6%
[2]; [7]
  growth inhibition: inactive: 7%
[2]; [8]
  growth inhibition: inactive: 46%
[2]; at 50.0 µM
  growth inhibition: inactive: 20.4%
[3]; [7]
  growth inhibition: inactive: 1%
[3]; [8]
  growth inhibition: inactive: 32%
[3]; at 50.0 µM
  growth inhibition: active: 85.5%
[4]; [7]
  growth inhibition: inactive: 11%
[4]; [8]
  growth inhibition: inactive: 15%
[4]; at 50.0 µM
  growth inhibition: inactive: -19.9%
[5]; [7]
  growth inhibition: inactive: 11%
[5]; [8]
  growth inhibition: inactive: 65%
[5]; at 50.0 µM
  growth inhibition: active: 70.2%
[6]; [7]
  growth inhibition: inactive: 9%
[6]; [8]
  growth inhibition: inactive: 41%
[6]; at 50.0 µM
  growth inhibition: active: 75.5%

## ClCCN(CCCl)c1ccc(CN2CCCCC2)cc1
[1]; [7]
  growth inhibition: active: 81%
[1]; [8]
  growth inhibition: active: 98%
[1]; at 50.0 µM
  growth inhibition: inactive: 64.2%
[2]; [7]
  growth inhibition: inactive: 55%
[2]; [8]
  growth inhibition: active: 98%
[2]; at 50.0 µM
  growth inhibition: inactive: 22.8%
[3]; [7]
  growth inhibition: active: 78%
[3]; [8]
  growth inhibition: active: 98%
[3]; at 50.0 µM
  growth inhibition: active: 73.7%
[4]; [7]
  growth inhibition: inactive: 65%
[4]; [8]
  growth inhibition: active: 96%
[4]; at 50.0 µM
  growth inhibition: inactive: 57.8%
[5]; [7]
  growth inhibition: active: 73%
[5]; [8]
  growth inhibition: active: 97%
[5]; at 50.0 µM
  growth inhibition: inactive: 64.7%
[6]; [7]
  growth inhibition: active: 73%
[6]; [8]
  growth inhibition: active: 95%
[6]; at 50.0 µM
  growth inhibition: inactive: 69.7%

## O=[N+]([O-])C1(Br)CCC(Br)([N+](=O)[O-])CC1 (stereo not given)
[1]; [7]
  growth inhibition: active: 98%
[1]; [8]
  growth inhibition: active: 96%
[1]; at 50.0 µM
  growth inhibition: active: 97.8%
[2]; [7]
  growth inhibition: active: 100%
[2]; [8]
  growth inhibition: active: 97%
[2]; at 50.0 µM
  growth inhibition: active: 98.2%
[3]; [7]
  growth inhibition: active: 98%
[3]; [8]
  growth inhibition: active: 97%
[3]; at 50.0 µM
  growth inhibition: active: 98.2%
[4]; [7]
  growth inhibition: inactive: 38%
[4]; [8]
  growth inhibition: active: 86%
[4]; at 50.0 µM
  growth inhibition: active: 96.8%
[5]; [7]
  growth inhibition: active: 99%
[5]; [8]
  growth inhibition: active: 96%
[5]; at 50.0 µM
  growth inhibition: active: 98%
[6]; [7]
  growth inhibition: active: 99%
[6]; [8]
  growth inhibition: active: 96%
[6]; at 50.0 µM
  growth inhibition: active: 98%

## Cc1cc([N+](=O)[O-])cc([N+](=O)[O-])c1O
[1]; [7]
  growth inhibition: inactive: 0%
[1]; [8]
  growth inhibition: active: 85%
[1]; at 50.0 µM
  growth inhibition: inactive: 48.8% and active: 79.4%
[2]; [7]
  growth inhibition: inactive: 6%
[2]; [8]
  growth inhibition: active: 87%
[2]; at 50.0 µM
  growth inhibition: inactive: 7.8% and active: 87%
[3]; [7]
  growth inhibition: inactive: 0%
[3]; [8]
  growth inhibition: active: 91%
[3]; at 50.0 µM
  growth inhibition: inactive: 56% and active: 85.3%
[4]; [7]
  growth inhibition: inactive: 7%
[4]; [8]
  growth inhibition: active: 94%
[4]; at 50.0 µM
  growth inhibition: inactive: 20.9% and inactive: 62.5%
[5]; [7]
  growth inhibition: inactive: 0%
[5]; [8]
  growth inhibition: active: 94%
[5]; at 50.0 µM
  growth inhibition: inactive: 30.6% and active: 83.5%
[6]; [7]
  growth inhibition: inactive: 0%
[6]; [8]
  growth inhibition: active: 86%
[6]; at 50.0 µM
  growth inhibition: inactive: 63.6% and active: 83.3%

## N#CSc1ccc([N+](=O)[O-])cc1[N+](=O)[O-]
[1]; [7]
  growth inhibition: active: 91%
[1]; [8]
  growth inhibition: active: 99%
[1]; at 50.0 µM
  growth inhibition: active: 99.2%
[2]; [7]
  growth inhibition: inactive: 61%
[2]; [8]
  growth inhibition: active: 100%
[2]; at 50.0 µM
  growth inhibition: active: 99.4%
[3]; [7]
  growth inhibition: active: 95%
[3]; [8]
  growth inhibition: active: 99%
[3]; at 50.0 µM
  growth inhibition: active: 99.8%
[4]; [7]
  growth inhibition: inactive: 47%
[4]; [8]
  growth inhibition: active: 99%
[4]; at 50.0 µM
  growth inhibition: active: 80.1%
[5]; [7]
  growth inhibition: active: 76%
[5]; [8]
  growth inhibition: active: 99%
[5]; at 50.0 µM
  growth inhibition: active: 99.3%
[6]; [7]
  growth inhibition: active: 81%
[6]; [8]
  growth inhibition: active: 98%
[6]; at 50.0 µM
  growth inhibition: active: 99.2%

## O=[N+]([O-])c1ccc(N/N=C/C=N/Nc2ccc([N+](=O)[O-])cc2[N+](=O)[O-])c([N+](=O)[O-])c1
[1]; [7]
  growth inhibition: inactive: 5%
[1]; [8]
  growth inhibition: inactive: 14%
[1]; at 50.0 µM
  growth inhibition: inactive: 5.55%
[2]; [7]
  growth inhibition: inactive: 3%
[2]; [8]
  growth inhibition: inactive: 5%
[2]; at 50.0 µM
  growth inhibition: inactive: 16.7%
[3]; [7]
  growth inhibition: inactive: -1%
[3]; [8]
  growth inhibition: inactive: 6%
[3]; at 50.0 µM
  growth inhibition: inactive: -12.8%
[4]; [7]
  growth inhibition: inactive: 4%
[4]; [8]
  growth inhibition: inactive: 4%
[4]; at 50.0 µM
  growth inhibition: inactive: -1%
[5]; [7]
  growth inhibition: inactive: -3%
[5]; [8]
  growth inhibition: inactive: 0%
[5]; at 50.0 µM
  growth inhibition: inactive: 2%
[6]; [7]
  growth inhibition: inactive: 3%
[6]; [8]
  growth inhibition: inactive: -53%
[6]; at 50.0 µM
  growth inhibition: inactive: -9.4%
